From US5104814A, “Assay kit and methods for neuroleptic drugs” (Schering Corporation, priority 1990, dated 1992)

Amino acid sequences for entries named in this document (tags omitted).
UniProt P18901, whole entry: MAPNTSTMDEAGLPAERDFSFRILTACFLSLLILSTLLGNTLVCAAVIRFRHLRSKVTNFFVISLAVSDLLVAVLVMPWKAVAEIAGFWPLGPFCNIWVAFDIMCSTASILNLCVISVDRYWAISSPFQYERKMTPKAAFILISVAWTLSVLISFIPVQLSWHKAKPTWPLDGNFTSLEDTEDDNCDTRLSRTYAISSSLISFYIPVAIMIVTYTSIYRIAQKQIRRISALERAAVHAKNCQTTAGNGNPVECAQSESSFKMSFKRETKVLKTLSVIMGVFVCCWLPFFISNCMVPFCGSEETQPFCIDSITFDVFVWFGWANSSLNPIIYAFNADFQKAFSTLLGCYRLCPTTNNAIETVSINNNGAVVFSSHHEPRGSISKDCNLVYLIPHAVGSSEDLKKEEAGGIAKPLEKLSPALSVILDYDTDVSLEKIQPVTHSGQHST

Molecular target: T1, D-1 receptor (Rattus norvegicus, UniProt P18901)
T1 construct: Striatal tissue was excised, pooled, and homogenized; from tissue; host or cells: striatum of male Sprague-Dawley rats, homogenized and washed by centrifugation
Assay: Saturation binding of [N-methyl-^3 H] Compound in rat striatum
Conditions: ligand concentration 1.0 nM
Description: Male Sprague-Dawley rats (200 to 250 g) from Charles River Breeding Laboratories, Mass. were used to obtain brain tissue. The rats were decapitated, their brains removed and placed on ice. Striatal tissue was excised, pooled, and homogenized (Brinkman Polytron, 10 sec) in 100 volumes (v/v) of ice cold 50mM Tris-HCl buffer, pH 7.4 (at 25° C.). The homogenate was centrifuged at 20,000×g for 10 min. The resultant pellet was rehomogenized in Tris-HCl buffer and centrifuged again. The final pellet was resuspended in 50 mM Tris-HCl buffer pH 7.4 containing 120 mM NaCl, 5 mM KCL, 2 mM CaCl2, and 1 mM MgCl2.
Polypropylene incubation tubes (in triplicate) received 100 μl of various concentrations of drugs dissolved or suspended in 0.05 M Tris-HCl buffer, pH 7.4, containing 4 mg/ml methylcellulose, 100 μl of a solution of [N-methyl-^3 H] Compound in Tris-HCl buffer (final reaction mixture concentration=1.0 nM) and 800 μl of tissue suspension (3 mg/assay). At a ligand concentration of approximately 1.0 nM, binding was found in preliminary experiments to be a linear function of tissue concentration up to 8 mg per assay. […] The filters were monitored for radioactivity through liquid scintillation counting in Scintosol (Isolab, Inc.).
When binding was evaluated as a function of radioligand concentration, saturation of specific sites was clearly achieved while non-specific binding was minimal.

## [3H]C([3H])([3H])N1CCc2cc(Cl)c(O)cc2C2c3ccccc3CCC21 (stereo not shown) [[N-methyl-^3 H] Compound]
  non-specific binding as share of total binding: 4-8%
